The values below are quoted from earlier work in patent US8003783B2, “17B-hydroxysteroid dehydrogenase inhibitors” (Sterix Limited, priority 2004, dated 2011).

Sequences of proteins named here, by UniProt entry; tags and fusion partners are left off. Residues count along the entry.
UniProt P08842, 22-583: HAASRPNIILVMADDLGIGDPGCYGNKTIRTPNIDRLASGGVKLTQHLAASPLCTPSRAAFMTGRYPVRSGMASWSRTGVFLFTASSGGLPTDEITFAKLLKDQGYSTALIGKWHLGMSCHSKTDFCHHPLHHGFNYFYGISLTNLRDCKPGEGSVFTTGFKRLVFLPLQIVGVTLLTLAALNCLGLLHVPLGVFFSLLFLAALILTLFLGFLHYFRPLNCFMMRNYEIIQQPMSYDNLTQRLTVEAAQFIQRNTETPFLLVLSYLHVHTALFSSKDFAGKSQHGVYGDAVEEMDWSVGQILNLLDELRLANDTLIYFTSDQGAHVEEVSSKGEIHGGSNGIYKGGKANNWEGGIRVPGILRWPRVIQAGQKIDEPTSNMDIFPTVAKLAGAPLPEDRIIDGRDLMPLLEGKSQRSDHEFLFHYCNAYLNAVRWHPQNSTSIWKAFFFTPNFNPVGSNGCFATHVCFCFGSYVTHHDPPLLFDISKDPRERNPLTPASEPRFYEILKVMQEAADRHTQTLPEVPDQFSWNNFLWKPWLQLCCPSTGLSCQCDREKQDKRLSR

This data set addresses steroid sulphatase (Homo sapiens, UniProt P08842). To be noted: in vitro; cited from earlier work.

Molecules are shown by their SMILES.

Regarding `NS(=O)(=O)Oc1ccc2c3c(c(=O)oc2c1)CCCCC3` [667COUMATE], the “potency relative to EMATE” value is on record as around 3 times.
